# AlphaSeq binding of Ab-14 light chain variants to a spike HR2 peptide

Binding partner: SARS-CoV-2 spike HR2 peptide, sequence PDVDLGDISGINAS.

Each scFv is VH, a (GGGGS)3 linker, VL, as in the parent Ab-14, and differs from it in the CDRs of the light chain only.
VH: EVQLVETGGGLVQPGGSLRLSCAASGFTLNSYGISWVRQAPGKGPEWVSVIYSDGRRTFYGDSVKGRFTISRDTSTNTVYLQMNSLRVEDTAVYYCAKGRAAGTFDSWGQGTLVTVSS
VL: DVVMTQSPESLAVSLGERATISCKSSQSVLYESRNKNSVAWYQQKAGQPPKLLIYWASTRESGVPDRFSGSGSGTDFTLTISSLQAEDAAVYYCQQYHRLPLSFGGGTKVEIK

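Phage display of a naive human antibody library on the peptide gave the parent. This is the validation round: designs drawn from the data on random variants, tested in the same kind of assay. Several design methods are mixed in this list. The scFvs were displayed on barcoded MATa yeast, the peptide on MATalpha yeast. Binding brings cells together so that they mate, and sequencing counts the barcode pairs among the diploids. Scores were corrected for input abundance and mapped to Kd with protein pairs of known affinity run in the same pool. The assay was run in six technical replicates.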

Variants are written as CDR1, CDR2 and CDR3 of the light chain (limits as in the source). Parent: KSSQSVLYESRNKNSVA, WASTRES, QQYHRLPLS. This list holds designs with more than six substitutions. Values are apparent Kd, the geometric mean of the replicates that gave a signal; lower means stronger binding. "nd" means that the variant was in the library but no mating with the target was seen in any replicate; the authors take this as a sign of poor binding, and no number exists. Three control strains display no target. For all light chain designs, 4% of the pairings with them gave a signal, with a median of 430 nM and one signal in twenty below 38 nM, so weak values seen in few replicates may be background. The control count says in how many pairings with the empty strains this scFv gave a signal. The parent sequence was in this pool as ten entries: three were never detected, three once, and four in most replicates, with averages from 2.2 nM to 240 nM. The authors' rule: three or more of the six replicates give a measured affinity, fewer mean a poor binder. The range of this assay differs from that of the first round, and the authors advise against merging the two.

The variant KVSFSVMLESRNKNAVA | EASTRES | QDYHRLPLS gave 2.2 nM (6 of 6 replicates; controls 1 of 18). For HLSINLPGQHYMGDSVA | HSERRAE | QQYARLPLG, the assay gave 440 pM (6 of 6 replicates; controls 0 of 18). The variant FLQAFGEESNRNSKNIA | SKDTRQV | QQYMRLPLS showed 1.2 nM (6 of 6 replicates; controls 3 of 18). The variant AISQSMDMTSRNVNSVA | DLTTRGN | QQYHRLPLS showed 1.5 nM (6 of 6 replicates; controls 0 of 18). With KQQQSMLYESRNSNSVA | NASQREE | QQYHRLPLM the result was 1.0 nM (6 of 6 replicates; controls 0 of 18). The variant KLTNVTGTEKVHGNNVA | EMETRER | QQYNRLPLA gave 5.2 nM (6 of 6 replicates; controls 2 of 18). For KLGQMVLTGAYVSNSVA | QMSTRVN | QQYHRLPLM, the assay gave 1.6 nM (6 of 6 replicates; controls 1 of 18). The variant KYPFSELYESRNQNSVA | EASQREE | QQYHRLPLS showed 1.9 nM (6 of 6 replicates; controls 1 of 18). The variant HMNKFMSEIGGARNSIA | GDDTLAQ | QHYHRLPLS showed 410 nM (5 of 6 replicates; controls 0 of 18).

The variant KLMMFMQEIGCMKNNIA | NLEEGAR | QQYAQLPLV gave nd (0 of 6 replicates; controls 1 of 18). With MLGGNLMHEMMQKNNVA | HMTTRVE | QQYHRLPLI the result was 33 nM (5 of 6 replicates; controls 0 of 18). For KFIQSVMYEKRTKNHVA | NASTRES | QQYHRLPLS, the assay gave 32 nM (6 of 6 replicates; controls 0 of 18). For NFSQMVLTGSTLKNSVA | HASTREN | QQYHRLPLI, the assay gave 200 nM (6 of 6 replicates; controls 1 of 18). With IISANNVMQGSQWDAVA | QGEIANN | QQYARLPLS the result was 75 nM (4 of 6 replicates; controls 0 of 18). For ILSQMLLTAGNKHNSVA | QANYREA | QQYHRLPLS, the assay gave 24 nM (3 of 6 replicates; controls 0 of 18). With KLSMLTEMEHVNRNSVA | ELVTRVN | QQYNRLPLS the result was 43 nM (1 of 6 replicates; controls 1 of 18). The variant NLYQSMNFGGRVMNSIA | DVSTLPD | QQYHRLPLS gave 1.8 nM (6 of 6 replicates; controls 0 of 18). The variant KISMLINMTFEASNNVA | EMATREQ | QQYNRLPLS showed 58 nM (6 of 6 replicates; controls 1 of 18).

The variant MISDLTMYGSRNKNSVA | DLSTRGS | QQYSRLPLS gave 17 nM (6 of 6 replicates; controls 0 of 18). The variant IISQSVMFQQTLINSVA | NAQTRES | QQYHRLPLS showed 3.0 nM (6 of 6 replicates; controls 0 of 18). The variant MVLKEDFQEYAAKNAVA | NASEKET | QHYARLPLV gave 47 nM (6 of 6 replicates; controls 1 of 18). For KSQQQYEYGDRNKNSVA | NASQRED | QQYHRLPLS, the assay gave 780 pM (6 of 6 replicates; controls 2 of 18). The variant SISGFMKSSMAHKNNVA | DMTNREN | QQYDRLPLS showed 1.0 nM (6 of 6 replicates; controls 3 of 18). The variant HMNHEFLGYTNYEQAIA | HESQRLY | QQYSRLPLS showed 16 nM (6 of 6 replicates; controls 2 of 18). The variant HMSMLTLSGQRHRNAVA | QMTTREN | QQYDRLPLT gave 27 nM (6 of 6 replicates; controls 1 of 18). With MLSDLVKMGSRNTNSVA | DNSTRGS | QQYDRLPLS the result was 75 nM (6 of 6 replicates; controls 0 of 18). For KLPQSDLYEQRNSNSVA | NASTRFS | QQYHRLPLS, the assay gave 2.4 nM (6 of 6 replicates; controls 0 of 18).

The variant HVELGTGGVQKYDSSVA | HASQRQE | QQYYQLPLT gave 2.2 nM (6 of 6 replicates; controls 1 of 18). The variant RIMGQLNVEGKNRNAVA | SGKEQVI | QHYARLPLS showed 300 nM (3 of 6 replicates; controls 0 of 18). With MMSQVTGSGQRHRNNVA | QTSTREP | QQYDHLPLI the result was 18 nM (6 of 6 replicates; controls 2 of 18). For TISQSVLMTGLNRNSVA | QAEERIE | QQYHRLPLS, the assay gave 3.0 nM (6 of 6 replicates; controls 1 of 18). With QLDWYNSTATAAANSVA | DVAQRMN | QQYMRLPLM the result was 2.1 nM (6 of 6 replicates; controls 0 of 18). For TIAQSMVYLSNLKNSIA | QAETRES | QQYHRLPIS, the assay gave 8.2 nM (6 of 6 replicates; controls 0 of 18). For HVPNYTENFTSAKQNIA | DQSARTS | QQYDRLPLA, the assay gave 11 nM (6 of 6 replicates; controls 0 of 18). The variant KFDLLMTTEYNNNKNVA | EGVHHLA | QQYERLPLQ gave 15 nM (6 of 6 replicates; controls 2 of 18). With KFSQSWLYESRVKNNVA | NASQRES | QCYHRLPLS the result was 10 nM (6 of 6 replicates; controls 0 of 18).

For KIGQQVTYESTNKNAIA | QMTTREQ | QQYHRLPLS, the assay gave 1.1 nM (6 of 6 replicates; controls 2 of 18). With KIEQLLFPYGPSWHSIA | NANTLLA | QQYYMLPLM the result was 50 nM (3 of 6 replicates; controls 0 of 18). For KLRGLTHIESFNKNNVA | EMTTRES | QSYDRLPLS, the assay gave 3.0 nM (6 of 6 replicates; controls 1 of 18). With ALGTSTLEESRNKNSVA | EMSTRES | QSYNRLPLS the result was 5.0 nM (6 of 6 replicates; controls 0 of 18). The variant FLHGNIEYGNKNWSAIA | ENTIRVP | QYYQHLPLA showed nd (0 of 6 replicates; controls 0 of 18). For KVKQSWLYESRNSNNVA | NASKRES | QQYHRLPLS, the assay gave 410 pM (6 of 6 replicates; controls 0 of 18). For TLGNQPTEMRDNKHAVA | DDYQRDR | QQYMRLPLS, the assay gave 4.6 nM (6 of 6 replicates; controls 0 of 18). The variant SLAMLLDQVYAYGSNIA | NAQELVV | QQYYRLPLT showed 37 nM (1 of 6 replicates; controls 0 of 18). The variant KLPQSTMQESVSKNSVA | ELSTRGA | QQYHRLPLS gave 3.0 nM (6 of 6 replicates; controls 2 of 18).

The variant SLDNLTNEQNAYGSNIA | NADVLVY | QQYYRLPIV gave 8.9 nM (6 of 6 replicates; controls 2 of 18).

Top 2 of the variants detected in all replicates, tightest first:

| CDR-L1 | CDR-L2 | CDR-L3 | Kd | replicates with signal | control signals |
|---|---|---|---|---|---|
| KVKQSWLYESRNSNNVA | NASKRES | QQYHRLPLS | 410 pM | 6 of 6 | 0 of 18 |
| HLSINLPGQHYMGDSVA | HSERRAE | QQYARLPLG | 440 pM | 6 of 6 | 0 of 18 |

Reference: Li et al. 2023, doi:10.1038/s41467-023-39022-2. File: FLAb, binding data.